# Results published in ChEMBL document CHEMBL1124123, “Graphics computer-aided receptor mapping as a predictive tool for drug design: development of potent, selective, and stereospecific ligands for the 5-HT1A receptor” (J Med Chem, 1988).
# The chains behind the UniProt entries cited, without tags or fusion partners. Where a name states a change or a piece, a line headed by the entry shows the natural chain unless it says otherwise.
# UniProt P30994: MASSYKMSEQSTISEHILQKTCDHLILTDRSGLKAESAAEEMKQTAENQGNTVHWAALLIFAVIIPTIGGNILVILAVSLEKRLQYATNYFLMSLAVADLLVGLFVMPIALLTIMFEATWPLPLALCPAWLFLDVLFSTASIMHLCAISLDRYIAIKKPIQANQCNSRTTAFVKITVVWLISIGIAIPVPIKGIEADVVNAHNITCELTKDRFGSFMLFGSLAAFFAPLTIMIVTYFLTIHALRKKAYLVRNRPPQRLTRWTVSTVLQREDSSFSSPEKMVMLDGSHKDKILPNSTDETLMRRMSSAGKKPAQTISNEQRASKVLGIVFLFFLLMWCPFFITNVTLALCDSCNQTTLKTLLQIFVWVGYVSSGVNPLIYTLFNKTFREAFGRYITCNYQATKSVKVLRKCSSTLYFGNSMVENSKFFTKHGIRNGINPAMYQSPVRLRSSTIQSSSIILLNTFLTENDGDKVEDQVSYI
# UniProt P08909: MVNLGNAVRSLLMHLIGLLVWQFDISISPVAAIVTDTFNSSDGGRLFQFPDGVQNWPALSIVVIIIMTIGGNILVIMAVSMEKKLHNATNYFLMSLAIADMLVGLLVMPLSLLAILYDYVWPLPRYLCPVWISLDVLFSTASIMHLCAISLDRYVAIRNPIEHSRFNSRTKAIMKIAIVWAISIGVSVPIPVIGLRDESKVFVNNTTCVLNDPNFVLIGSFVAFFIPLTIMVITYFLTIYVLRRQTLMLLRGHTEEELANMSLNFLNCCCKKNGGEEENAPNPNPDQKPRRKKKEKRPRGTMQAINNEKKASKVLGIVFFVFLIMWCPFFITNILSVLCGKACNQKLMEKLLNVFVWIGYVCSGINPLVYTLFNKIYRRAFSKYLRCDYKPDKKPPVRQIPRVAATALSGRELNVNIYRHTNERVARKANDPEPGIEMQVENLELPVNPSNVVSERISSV
# UniProt P14842: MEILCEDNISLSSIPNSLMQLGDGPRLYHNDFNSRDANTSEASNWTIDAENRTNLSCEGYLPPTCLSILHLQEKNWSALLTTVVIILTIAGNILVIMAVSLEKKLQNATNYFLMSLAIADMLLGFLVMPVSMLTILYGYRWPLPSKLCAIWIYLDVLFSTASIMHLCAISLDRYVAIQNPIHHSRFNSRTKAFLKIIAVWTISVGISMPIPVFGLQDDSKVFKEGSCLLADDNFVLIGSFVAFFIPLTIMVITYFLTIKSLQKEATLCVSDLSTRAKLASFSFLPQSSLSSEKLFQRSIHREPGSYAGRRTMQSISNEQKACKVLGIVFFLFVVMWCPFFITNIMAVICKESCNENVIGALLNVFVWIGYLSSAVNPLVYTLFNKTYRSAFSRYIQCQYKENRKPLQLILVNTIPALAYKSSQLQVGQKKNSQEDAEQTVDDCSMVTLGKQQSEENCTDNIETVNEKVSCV
# Biological target: Serotonin 2 (5-HT2) receptor (Rattus norvegicus, UniProt P30994+P08909+P14842)
structure (smiles),measurement,value
O=C(CCCN1CCC2(CC1)C(=O)NCN2c1ccccc1)c1ccc(F)cc1 [SPIPERONE],Log IC50,-8.67
